Data from publication PMC8078842 (PLoS Neglected Tropical Diseases, 2021).

Test system: MDR1-MDCK cells
Details: 10 µM

SMILES | Mass balance A2B (dog, MDCK-MDR1, 1 h, pH 7.4) | Mass balance B2A (dog, MDCK-MDR1, 1 h, pH 7.4) | Mass balance A2B (UPLC-MS/MS) | Mass balance B2A (UPLC-MS/MS)
N=C(N)c1ccc(OCCCCCOc2ccc(C(=N)N)cc2)cc1 [Pentamidine, 1,5-bis-4ρ-amidinophenoxypentane] | 74.5% | 72.7% | – | –
CC(C)NCC(O)COc1cccc2ccccc12 (stereo not shown) [propranolol] | – | – | 81.5% | 84.4%

Read-outs that look alike come from different tables or passages of the source.
